Experimental data from US20160206597A1, “New Use” (priority 2013, published 2016).

System: patients with chronic heart failure with preserved left-ventricular ejection fraction (HF-PEF)
Assay: Safety and tolerability in the 36-week HF-PEF study
Details: 36-week study

trisodium [3-((1S,3R)-1-biphenyl-4-ylmethyl-3-ethoxycarbonyl-1-butylcarbamoyl) propionate-(S)-3′-methyl-2′-(pentanoyl{2″-(tetrazol-5-ylate)biphenyl-4′-ylmethyl}amino)butyrate]hemipentahydrate [LCZ696]
Adverse event atrial fibrillation (number of patients): 2 patients
Adverse event atrial fibrillation (percent of patients): 2.0%
Angio-oedema occurrence: one patient
Deaths among serious adverse events: one death
Patients with one or more serious adverse events (number): 22 patients
Patients with one or more serious adverse events (percent): 15%
Tolerability (adverse effects similar to valsartan): well tolerated
